## OPERA 2.9 data: vapor pressure values

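These are experimental values that the OPERA curators gathered from public databases to train and test their QSAR models. A listed value is a point estimate from one report or more. Conditions of the individual experiments are not part of the data. Where a salt, mixture or single isomer is drawn, the source does not say that exactly this form was tested. Some entries may be limits or estimates that an upstream database listed as plain numbers.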

Vapor pressures (log10 mmHg) refer to near room temperature, 15 to 30 °C; higher is more volatile.
"via" names the databases from which the curators took the value.

* C/C=C/C(C)C.C=C [4-Methyl-2-pentene]: vapor pressure 2.316 (log10 mmHg) (via OCHEM)
* CC1CC(=O)OC1=O (configuration not stated) [2,5-Furandione, dihydro-3-methyl-]: vapor pressure -1.51 (log10 mmHg) (via OCHEM)
* N=C(N)NCCC[C@H](N)C(=O)O [L-Arginine]: vapor pressure -8.857 (log10 mmHg) (via eChemPortal)
* C[SiH](C)O[Si](C)(C)O[Si](C)(C)O[Si](C)(C)O[SiH](C)C [pentasiloxane, 1,1,3,3,5,5,7,7,9,9-decamethyl-]: vapor pressure -0.244 (log10 mmHg) (via eChemPortal)
* C[C@@H]1[C@H](C)CC[C@H]1C (relative stereo): vapor pressure 1.505 (log10 mmHg) (via OCHEM)
* CCCCOC(C)COCC(C)O (configuration not stated) [1-(2-Butoxypropoxy)propan-2-ol]: vapor pressure -1.222 (log10 mmHg) (via PubChem)
* CCS(=O)(=O)c1nnc(N(C)C(=O)NC)s1 [Ethidimuron]: vapor pressure -10.22 (log10 mmHg) (via OCHEM)
* CCC(C)=NO[Si](ON=C(C)CC)(ON=C(C)CC)c1ccccc1 [Phenyltris(butanoxime)silane]: vapor pressure -4.648 (log10 mmHg) (via eChemPortal)
* CC1(C)CC(=O)CC(C)(C)N1 [2,2,6,6-Tetramethyl-4-piperidone]: vapor pressure -0.759 (log10 mmHg) (via eChemPortal)
* CC[C@@]12CC[C@H]3C4=C(CC[C@@H]3[C@H]1CC[C@H]2O)CC(OC)=CC4 (racemic): vapor pressure -7.444 (log10 mmHg) (via eChemPortal)
* C=CCOCC=C [1-Propene, 3,3'-oxybis-]: vapor pressure 1.638 (log10 mmHg) (via PubChem)
* Clc1ccc(-c2c(Cl)cc(Cl)c(Cl)c2Cl)cc1 [2,3,4,4',6-Pentachlorobiphenyl]: vapor pressure -4.595 (log10 mmHg) (via OCHEM)
* N=C(c1ccccc1)c1ccccc1 [1,1-Diphenylmethanimine]: vapor pressure -3.668 (log10 mmHg) (via eChemPortal)
* CCN1CCNCC1 [Piperazine, 1-ethyl-]: vapor pressure 0.309 (log10 mmHg) (via eChemPortal)
* Cc1ccc(C)o1 [2,5-Dimethylfuran]: vapor pressure 1.724 (log10 mmHg) (via PubChem)
* Cc1cc(O)ccc1O [Methylhydroquinone]: vapor pressure -4.684 (log10 mmHg) (via eChemPortal)
* CC(C)C(=O)c1ccccc1 [Isopropyl phenyl ketone]: vapor pressure -1.058 (log10 mmHg) (via eChemPortal)
* Clc1ccc(-c2cccc(Cl)c2)cc1 [3,4'-Dichlorobiphenyl]: vapor pressure -3.365 (log10 mmHg) (via OCHEM)
* C=C(C)C(=O)OCCNC(C)(C)C [2-(tert-Butylamino)ethyl 2-methylprop-2-enoate]: vapor pressure -1.348 (log10 mmHg) (via eChemPortal)
* C=CC(C)(O)C=CC1=C(C)CCCC1(C)C (configuration not stated): vapor pressure -2.92 (log10 mmHg) (via eChemPortal)
* C=CC(O)CCCCC (configuration not stated) [1-Octen-3-ol]: vapor pressure -0.648 (log10 mmHg) (via eChemPortal)
* Clc1cc(Cl)c(-c2cccc(Cl)c2Cl)c(Cl)c1 [2,2',3,4',6'-Pentachlorobiphenyl]: vapor pressure -4.275 (log10 mmHg) (via OCHEM)
* Clc1cc(Cl)cc(-c2cc(Cl)ccc2Cl)c1: vapor pressure -4.245 (log10 mmHg) (via OCHEM)
* CC(C)N=C=NC(C)C [Diisopropylcarbodiimide]: vapor pressure 0.708 (log10 mmHg) (via PubChem)
* N#CCC[Si](Cl)(Cl)Cl [3-(Trichlorosilyl)propanenitrile]: vapor pressure -0.299 (log10 mmHg) (via eChemPortal)
* CC=CC(C)C [4-Methyl-2-pentene]: vapor pressure 2.316 (log10 mmHg) (via OCHEM)
* Clc1cc(Cl)c(Oc2c(Cl)cc(Cl)c(Cl)c2Cl)c(Cl)c1: vapor pressure -7.896 (log10 mmHg) (via OCHEM)
* CC(CCN(C)C)N(C)C (configuration not stated) [N,N,N',N'-Tetramethyl-1,3-butanediamine]: vapor pressure 0.215 (log10 mmHg) (via PubChem)
* CCCCCCCC(=O)NCCC[N+](C)(C)CC(=O)[O-]: vapor pressure -5.084 (log10 mmHg) (via eChemPortal)
* NCCCN(CCO)CCO [2,2'-[(3-Aminopropyl)imino]diethanol]: vapor pressure -5.084 (log10 mmHg) (via eChemPortal)
* CN(C)Cc1ccccc1 [N,N-Dimethylbenzylamine]: vapor pressure 0.29 (log10 mmHg) (via eChemPortal)
* CCCCCCCCCC(=O)OCC(CO)(CO)COC(=O)C(CC)CCCC (configuration not stated): vapor pressure -11.29 (log10 mmHg) (via eChemPortal)
* CCOC(=O)CC(CC(C)=O)C(=O)OCC (configuration not stated) [Diethyl acetonylsuccinate]: vapor pressure -2.745 (log10 mmHg) (via eChemPortal)
* COC(=O)C(N)CO.Cl (configuration not stated) [Methyl serinate--hydrogen chloride (1/1)]: vapor pressure -4.546 (log10 mmHg) (via eChemPortal)
* CC1CCc2cc(F)cc3c(=O)c(C(=O)O)cn1c23 (configuration not stated) [Flumequine]: vapor pressure -6.606 (log10 mmHg) (via OCHEM)
* Clc1ccc(Cl)c(-c2c(Cl)cc(Cl)c(Cl)c2Cl)c1 [2,2',3,4,5',6-Hexachlorobiphenyl]: vapor pressure -4.585 (log10 mmHg) (via OCHEM)
* CCCCCCCCCCCCCCCCCc1ncc[nH]1 [1H-Imidazole, 2-heptadecyl-]: vapor pressure -4.011 (log10 mmHg) (via eChemPortal)
* C=C(C)CCOC(C)=O [3-Buten-1-ol, 3-methyl-, 1-acetate]: vapor pressure 0.4 (log10 mmHg) (via eChemPortal)
* CCOC(C)(OCC)OCC [Ethane, 1,1,1-triethoxy-]: vapor pressure 0.407 (log10 mmHg) (via eChemPortal)
* CCCCCCCCCCCCCCCCCC[Si](C)(C)Cl [Silane, chlorodimethyloctadecyl-]: vapor pressure -3.648 (log10 mmHg) (via eChemPortal)
* CC(C)OCCO [2-Isopropoxyethanol]: vapor pressure 0.586 (log10 mmHg) (via PubChem, eChemPortal)
* Clc1cc(Cl)c(-c2c(Cl)ccc(Cl)c2Cl)c(Cl)c1 [2,2',3,4',6,6'-Hexachlorobiphenyl]: vapor pressure -4.514 (log10 mmHg) (via OCHEM)
* Cl.NCC(=O)O [Glycine hydrochloride]: vapor pressure -4.533 (log10 mmHg) (via eChemPortal)
* Clc1cccc(-c2cc(Cl)cc(Cl)c2)c1 [3,3',5-Trichlorobiphenyl]: vapor pressure -3.975 (log10 mmHg) (via OCHEM)

Source: data files of OPERA 2.9 (Mansouri et al.), github.com/kmansouri/OPERA.